According to ChEMBL document CHEMBL4699582, “Discovery of OATD-01, a First-in-Class Chitinase Inhibitor as Potential New Therapeutics for Idiopathic Pulmonary Fibrosis” (J Med Chem, 2020):
Activity calls are given as the source filed them. No cut-off for these calls is given here.

Amino acid sequences for entries named in this document (tags omitted). A change or cut given only in a name is not applied to a line headed by its entry.
UniProt Q9BZP6: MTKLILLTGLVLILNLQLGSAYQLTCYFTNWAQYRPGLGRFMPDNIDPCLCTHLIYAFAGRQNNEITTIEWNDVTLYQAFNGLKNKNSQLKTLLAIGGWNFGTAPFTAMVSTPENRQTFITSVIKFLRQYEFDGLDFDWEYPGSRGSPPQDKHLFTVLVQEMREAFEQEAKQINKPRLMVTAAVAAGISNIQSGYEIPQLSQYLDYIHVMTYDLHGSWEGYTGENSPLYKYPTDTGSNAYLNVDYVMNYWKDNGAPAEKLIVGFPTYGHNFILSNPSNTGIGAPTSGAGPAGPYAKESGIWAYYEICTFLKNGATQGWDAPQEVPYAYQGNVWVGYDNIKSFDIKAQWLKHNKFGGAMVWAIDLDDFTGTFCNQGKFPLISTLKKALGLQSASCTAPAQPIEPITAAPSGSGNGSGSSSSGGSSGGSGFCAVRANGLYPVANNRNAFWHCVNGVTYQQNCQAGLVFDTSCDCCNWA

Key:
[1] = target: Acidic mammalian chitinase (Homo sapiens, UniProt Q9BZP6); assay: Inhibition of full-length C-terminal his-tagged human AMCase expressed in CHO-K1 cells assessed as reduction in chitinolytic activity using 4-methylumbelliferyl-beta-D-N,N-diacetylchitobioside hydrate as substrate after 60 mins by fluorometric assay; format: cell-based
[2] = species: Mus musculus; conditions: C57BL/6N, dose 100.0 mg/kg

Row | Compound | IC50 [1] [nM] | inhibition [2]
1 | COC[C@H]1CN(C2CCN(c3nc(N)n[nH]3)CC2)[C@@H](Cc2ccc(Cl)cc2)CO1 | 8.9 | –
2 | COC(=O)c1ccc2c(c1)NC(=O)/C2=C(\Nc1ccc(N(C)C(=O)CN2CCN(C)CC2)cc1)c1ccccc1 | – | inactive
